Test results: PubChem BioAssay AID1778 (Sanford-Burnham Center for Chemical Genomics, 2009)
The list shows a part of the results. Potency and affinity values are given separately. The source made the active and inactive calls. Cut-off read from the data, not from the text of the source: active = inhibition above about 50%; inactive = the rest.

By UniProt entry, the sequences of proteins in these tests, tags left out. Where a name states a change or a piece, a line headed by the entry shows the natural chain unless it says otherwise.
UniProt P41145: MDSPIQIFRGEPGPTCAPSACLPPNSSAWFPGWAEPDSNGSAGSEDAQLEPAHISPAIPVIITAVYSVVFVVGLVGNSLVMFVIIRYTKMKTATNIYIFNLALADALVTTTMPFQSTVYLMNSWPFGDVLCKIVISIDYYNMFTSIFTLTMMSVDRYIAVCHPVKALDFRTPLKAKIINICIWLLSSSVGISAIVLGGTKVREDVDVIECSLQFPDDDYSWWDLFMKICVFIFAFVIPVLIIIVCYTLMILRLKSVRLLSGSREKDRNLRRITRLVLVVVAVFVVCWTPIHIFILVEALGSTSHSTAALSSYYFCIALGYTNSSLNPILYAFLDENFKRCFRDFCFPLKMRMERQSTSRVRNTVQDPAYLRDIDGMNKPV

Biological target: Kappa-type opioid receptor (Homo sapiens) (UniProt P41145)
Test: KOR antagonists, beta-arrestin recruitment, cell-based, luminescence, uHTS (AID 1778)
Conditions: antagonist mode, at 10 µM, hits give high values

| SMILES | inhibition |
| --- | --- |
| CC1CCC(C(C)C)C(OP(=O)(Nc2ccccn2)c2ccccc2)C1 (stereo unspecified) | inactive: 24.9% |
| CCN(CC)C(=O)Cn1c(=O)n(C)c2ccccc21 | inactive: -25.1% |
| CC(C)(C)NC(=O)Cn1c(SCC(=O)NCc2cccs2)nc2ccccc21 | inactive: 11.7% |
| O=C(Cn1c(SCC(=O)N2CCc3ccccc32)nc2ccccc21)NC1CCCC1 | inactive: -0.6% |
| COc1cc2c(cc1NC(=O)Cn1cnc3c1c(=O)n(C)c(=O)n3C)oc1ccccc12 | inactive: 9.3% |
| O=C(Cn1cnc2ccccc21)Nc1cc(C(F)(F)F)ccc1N1CCOCC1 | inactive: 18.1% |
| O=C(Cn1c(C(F)(F)F)nc2ccccc21)NCCN1CCCC1 | inactive: -11.7% |
| Cc1cccc(C)c1NC(=O)N1CCC(n2c(=O)[nH]c3ccccc32)CC1 | inactive: -29.4% |
| CCn1cc(Cl)c(C(=O)Nc2nc3ccccc3n2CCN2CCCCC2)n1 | inactive: 8.3% |
| CCCC(=O)Nc1ccc(C(=O)/C=C/c2ccc(SC)cc2)cc1 | inactive: 3.4% |
| COc1ccc(Cl)cc1NC(=O)Cn1c(NCCO)nc2ccccc21 | inactive: 6.4% |
| CCN1C(=O)CC(N2CCC(Nc3ccc(OC)cc3)CC2)C1=O (stereo unspecified) | inactive: 28.5% |
| Cn1c(=O)c2ncn(CC(=O)NCCOc3ccc(C(C)(C)C)cc3)c2n(C)c1=O | inactive: 40.8% |
| O=C(CSc1nc2ccccc2n1CC(=O)NCc1ccccc1)NCc1ccco1 | inactive: -14.8% |
| CC(=O)Nc1ccc(NC(=O)C2CC(=O)Nc3nc4ccccc4n32)cc1 (stereo unspecified) | inactive: 17.9% |
| O=C(/C=C/c1ccccc1)OC1CN2CCC1CC2 (stereo unspecified) | inactive: 10% |
| COc1cccc(NC(=O)Cn2c(SCC(=O)N3CCOCC3)nc3ccccc32)c1 | inactive: -32.2% |
| COc1ccc(Cc2nc3ccccc3n2CC(=O)N/N=C/c2ccc(C)cc2O)cc1OC | inactive: -19.9% |
| CCN(c1ccccc1)S(=O)(=O)c1ccc(OC)c(NC(=O)Cn2cnc3c2c(=O)n(C)c(=O)n3C)c1 | inactive: 3.6% |

| SMILES | inhibition |
| --- | --- |
| O=S(=O)(c1ccc(Br)cc1)N1CCn2c(nc3ccccc32)C1 | inactive: -53.7% |
| O=S(=O)(c1ccc(Cl)c(Cl)c1)N1CCc2nc3ccccc3n2CC1 | inactive: -23.6% |
| Cn1c(=O)c2c(ncn2CC(=O)N/N=C/C=C/c2ccccc2)n(C)c1=O | inactive: -14.3% |
| CC1CC(C)CN(Cc2nc3c(c(=O)n(C)c(=O)n3C)n2CCN2CCOCC2)C1 (stereo unspecified) | inactive: -9.9% |
| O=S(=O)(Nc1ccc2c(c1)nc1n2CCN(Cc2ccccc2)C1)c1ccccc1 | inactive: -16.8% |
| N=c1n(CCN2CCOCC2)c2ccccc2n1Cc1ccccc1Br | inactive: -0.3% |
| CCc1ccccc1NC(=O)CSc1nc2ccccc2n1CC(=O)N(C)C | inactive: -8.7% |
| O=S(=O)(Nc1ccc2c(c1)nc1n2CCN(Cc2ccccc2)C1)c1ccc(Cl)cc1 | inactive: 2.4% |
| O=C(Cn1cnc2ccccc21)N/N=C/c1cccs1 | inactive: 17.2% |
| CN(C)CCn1cnc2c1c(=O)[nH]c(=O)n2Cc1ccccc1 | inactive: -32.1% |
| O=C1CC(N2CCC(n3c(=O)[nH]c4ccccc43)CC2)C(=O)N1c1ccc(F)cc1 (stereo unspecified) | inactive: 2% |
| CC(c1ccccc1)N1CCn2c(nc3cc(NC(=O)c4cccs4)ccc32)C1 (stereo unspecified) | inactive: -4.1% |
| CC(C)N(C(=O)Cn1c(SCC(=O)NCc2ccc3c(c2)OCO3)nc2ccccc21)C(C)C | inactive: 1.1% |
| O=P1(Nc2ncccn2)COc2ccccc2OC1 | inactive: -87.6% |
| Cn1c(=O)[nH]c(=O)c2c1nc(N1CCOCC1)n2CCN1CCOCC1 | inactive: 15.1% |
| CCN(CC)C(=O)N1CCn2c(nc3ccccc32)C1 | inactive: -10% |
| Cc1ccc2c(c1)C1CN(C)CCC1N2C(=O)c1ccc(Br)o1 (stereo unspecified) | inactive: -33% |
| COC(=O)CSc1nc2ccccc2n1CC(=O)N(C(C)C)C(C)C | inactive: 2.1% |
| Nc1cccc([As](=O)(O)c2ccccc2)c1 | inactive: 32.5% |

| SMILES | inhibition |
| --- | --- |
| CCOCN(C(=O)Cn1c(COC)nc2ccccc21)c1c(C)cccc1CC | inactive: 20% |
| Cn1c(=O)c2c(ncn2CC(=O)Nc2ccc(Cl)cc2Cl)n(C)c1=O | inactive: -6.2% |
| COc1ccccc1N1CCN(C(=O)Cn2cnc3c2c(=O)n(C)c(=O)n3C)CC1 | inactive: -15.5% |
| Cn1c(=O)[nH]c(=O)c2c1nc(CN1CCN(c3cccc(Cl)c3)CC1)n2CCN1CCOCC1 | inactive: 13.9% |
| Cn1c(=O)c2ncn(CC(=O)NCCOCc3ccccc3Cl)c2n(C)c1=O | inactive: -29.1% |
| O=C(Cn1c(-c2ccccc2Cl)nc2ccccc21)Nc1cccc(Cl)c1 | inactive: 10.4% |
| Cn1c(=O)c2c(ncn2CC(=O)Nc2ccccc2Sc2ccccc2)n(C)c1=O | inactive: -1.3% |
| Cc1cc(NC(=O)Cn2cnc3c2c(=O)n(C)c(=O)n3C)n(-c2ccccc2)n1 | inactive: 30.1% |
| CC(C)C[C@H](NC(=O)N1CCn2c1nc1ccccc12)C(=O)NCc1ccco1 | inactive: 4.9% |
| Cc1ccc2c(c1)C1CN(C)CCC1N2C(=O)c1ccccc1NS(=O)(=O)c1ccc(F)cc1C (stereo unspecified) | inactive: -24.8% |
| O=P1(Nc2ccc(Br)cn2)COc2ccccc2OC1 | inactive: -35.4% |
| O=[As](O)(c1cccs1)c1cccs1 | inactive: 13.8% |
| CCc1ccccc1NC(=O)CSc1nc2ccccc2n1CC(=O)N1CCCC1 | inactive: 10.8% |
| Cc1ccc(OCC(=O)OC2CN3CCC2CC3)cc1 (stereo unspecified) | inactive: 20% |
| Cc1ccc(C(=O)N(C)c2ccc(OCC(=O)N3c4ccc(C)cc4C4CN(C)CCC43)cc2)cc1 (stereo unspecified) | inactive: -24% |
| CCC(=O)N1CCn2c1nc1ccccc12 | inactive: -14.1% |
| Cc1ccc2c(c1)C1CN(C)CCC1N2C(=O)Cn1nnc(-c2ccccc2F)n1 (stereo unspecified) | inactive: -2.9% |
| Cn1c(CNc2nc3ccccc3n2CCN2CCCCC2)nc2ccccc21 | inactive: 1.2% |
